# According to US20160250277A1, “[…] OPIOID RECEPTOR AGONISTS FOR PREVENTING, INHIBITING OR TREATING NAUSEA AND VOMITING” (CARA THERAPEUTICS, INC., priority 2013, published 2016):
# Experiments:
# [1] = test system: patients following bunionectomy surgery; test: Phase 2 clinical trial CLIN2003, bunionectomy
# [2] = test system: patients undergoing laparoscopic hysterectomy; test: Phase 2 clinical trial CLIN2002, laparoscopic hysterectomy; conditions: 0.04 mg/kg I.V. pre- and/or post-operatively
# human subjects = test: Phase 1 and Phase 2 clinical trials, overall safety; conditions: over 300 human subjects; intravenous infusion, short bolus or oral capsule
smiles,measurement,setting,value
"CC(C)C[C@@H](NC(=O)[C@@H](Cc1ccccc1)NC(=O)[C@H](N)Cc1ccccc1)C(=O)N[C@H](CCCCN)C(=O)N1CCC(N)(C(=O)O)CC1 [CR845, D-Phe-D-Phe-D-Leu-D-Lys-[ω(4-aminopiperidine-4-carboxylic acid)]-OH]",mean fentanyl use vs placebo,[1]; 48 hour period,no difference in mean fentanyl use
same,safety and tolerability,[1]; repeated I.V. 0.005 mg/kg,safe and generally well tolerated
same,safety and tolerability,[2],safe and generally well tolerated
same,safety and tolerability,human subjects,safe and well tolerated
